Several values for one entry are separate records, joined by “and”; a condition that tells them apart may be missing. Equal entries are not always repeated.

The chains behind the UniProt entries cited, without tags or fusion partners.
UniProt P08908, whole entry: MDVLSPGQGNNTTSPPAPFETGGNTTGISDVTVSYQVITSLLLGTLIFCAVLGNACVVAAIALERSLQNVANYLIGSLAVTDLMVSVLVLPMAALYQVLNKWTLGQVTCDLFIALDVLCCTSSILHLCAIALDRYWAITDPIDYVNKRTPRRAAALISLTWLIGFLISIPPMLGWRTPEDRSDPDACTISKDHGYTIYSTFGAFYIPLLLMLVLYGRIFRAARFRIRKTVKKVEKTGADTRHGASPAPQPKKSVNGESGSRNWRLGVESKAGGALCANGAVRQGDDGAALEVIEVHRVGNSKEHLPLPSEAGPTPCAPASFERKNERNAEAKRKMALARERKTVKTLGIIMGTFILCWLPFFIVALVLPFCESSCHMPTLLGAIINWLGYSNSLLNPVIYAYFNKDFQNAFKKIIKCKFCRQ
UniProt P31645, whole entry: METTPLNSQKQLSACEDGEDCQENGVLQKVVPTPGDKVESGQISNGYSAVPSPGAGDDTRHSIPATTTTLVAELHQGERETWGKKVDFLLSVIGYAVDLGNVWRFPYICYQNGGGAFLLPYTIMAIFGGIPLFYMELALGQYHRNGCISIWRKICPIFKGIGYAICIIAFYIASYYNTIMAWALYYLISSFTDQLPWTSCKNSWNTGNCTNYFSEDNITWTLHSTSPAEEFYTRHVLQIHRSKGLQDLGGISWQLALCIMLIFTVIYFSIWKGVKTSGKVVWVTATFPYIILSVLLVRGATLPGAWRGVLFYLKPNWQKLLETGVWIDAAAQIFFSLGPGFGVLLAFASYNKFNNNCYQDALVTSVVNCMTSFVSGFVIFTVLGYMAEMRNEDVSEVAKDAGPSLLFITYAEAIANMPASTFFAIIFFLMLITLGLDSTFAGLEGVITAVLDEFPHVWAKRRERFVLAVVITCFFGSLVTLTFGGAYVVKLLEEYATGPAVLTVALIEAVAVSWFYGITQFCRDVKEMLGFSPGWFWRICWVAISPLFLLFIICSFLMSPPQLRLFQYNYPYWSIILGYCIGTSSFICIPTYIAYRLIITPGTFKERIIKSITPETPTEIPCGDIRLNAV

The target of experiment [1] is T1, human 5HT1A receptor (Homo sapiens, UniProt P08908). Nature of the experiment: [35S]GTPγS binding for 5-HT1A receptor inhibition (antagonist mode). To be noted: Example 78, HEK293 membranes, antagonist mode with serotonin 100 nM, <5 = not active at up to 10 μM. The method, then:
Compounds showing affinity at the 5-HT1A receptor were tested for functional agonism and antagonism in a [^35S]GTPγS (guanine triphosphate (non-hydrolysable, labelled with ^35S) binding assay on membranes of HEK293 cells permanently transfected with human 5HT1A receptor (Perkin Elmer, USA).
Frozen membranes were thawed, briefly homogenized and were diluted in incubation buffer, 100 mM NaCl, 0.3 mM MgCl2 and 10 μM guanine diphosphate (GDP), pH 7.4-7.5) supplemented with 10 μg/ml saponin. Assay mixtures contained 10 μg of membrane protein and test compound, buffer, or control agonist (serotonin, 10 μM). For the antagonistic assay, control agonist was present in all wells containing compound at a sub-maximal concentration (serotonin, 100 nM). After 20 minutes pre-incubation at 37° C., [^35S]GTPγS was added to a final concentration of 0.25 nM, briefly shaken and further incubated for another 20 minutes. Reactions were terminated by rapid vacuum filtration through GF/B unifilter plates using a Packard Harvester. Filters were washed three times with wash buffer (10 mM NaH2PO4, 10 mM Na2HPO4, pH 7.4), dried overnight and bound counts were measured in a Topcount Scintillation Counter in the presence of Microscint O. % Specific Binding was calculated and curves were plotted with help of in house software where pIC50 values were determined and Kb values were calculated.

The next experiment addresses human 5-HTT (Homo sapiens, UniProt P31645). Nature of the experiment: Radioligand binding to 5-HTT (serotonin transporter, SERT), [3H]Paroxetine. The conditions noted are these: Example 77; membranes of HEK293 cells, [3H]Paroxetine 0.5 nM; <5 = not active at up to 10 μM. As to the method:
For 5-HTT binding, frozen membranes of HEK293 cells stably-transfected with human 5-HTT (Perkin-Elmer, USA) were thawed on ice, briefly homogenised and resuspended in Tris-HCl buffer (50 mM, pH 7.4) supplemented with NaCl (120 mM) and KCl (5 mM) at a concentration of 50 μg protein per incubation mixture. The membrane suspension was added to the test compound together with [^3H]Paroxetine (0.5 nM) in a total volume of 250 μl and incubated (60 min, 25° C.). Non-specific binding was determined in the presence of imipramine (1 μM). Filtration was done over pre-soaked GF/B unifilters (0.01% PEI) and washed as above with the Tris-HCl salt buffer used for the incubation. Specific binding was calculated and sigmoidal curves were plotted by an internally-developed software program based on S-plus software. Ki values were calculated using the Cheng-Prusoff equation.

The target of experiment [2] is T1, human 5HT1A receptor. Nature of the experiment: Radioligand binding to the 5-HT1A receptor, [3H]8-OH-DPAT. To be noted: Example 77; membranes of HEK293 cells, [3H]8-OH-DPAT 0.5 nM; <5 = not active at up to 10 μM. As to the method:
Frozen membranes of HEK293 cells, stably-transfected with human 5-HT1A receptor (Perkin Elmer) were thawed on ice, briefly homogenised with an Ultra Turrax homogeniser and then suspended in Tris-HCl buffer (50 mM pH 7.7) supplemented with CaCl2 (4 mM) at an appropriate pre-determined protein concentration (5-10 μg protein per incubation mixture). Together with [^3H]8-OH-DPAT (0.5 nM final concentration; Perkin Elmer, USA), the membrane suspension was added to the test compound and incubated (30 min at 37° C.) in a total volume of 400 μl. Non-specific binding was determined in the presence of Spiroxatrine (1 μM). Free radioligand was separated from the radioligand-receptor complex by means of rapid vacuum filtration over GF/B unifilter plates with a Packard Harvester Filtration Unit. Unifilter plates were washed with ice cold Tris-HCl buffer (50 mM, pH 8.0) and then dried overnight. Bound counts were measured in a Topcount Scintillation Counter in the presence of Microscint O.

Take `O[C@H](COc1cccc2[nH]ccc12)CN1C[C@@H]2CC=CC[C@H]1CN2c1ccc2ccccc2c1`: the “h5HT1A Antagonist pIC50” value at human 5HT1A receptor [1] is 5.18 and 5.37. Also, at human 5-HTT, the “h5HTT pIC50” value was 7.43 and 7.49.
In the case of `Cc1cc2c(OC[C@@H](O)CN3C[C@@H]4CC=CC[C@H]3CN4c3ccc4ccccc4c3)cccc2[nH]1`, the “h5HT1A pIC50” value on human 5HT1A receptor [2] was 7.31 and 7.04 and 7.22. In addition, on human 5-HTT, the “h5HTT pIC50” value was 7.63 and 7.76 and 7.5.
`O[C@@H](COc1cccc2[nH]ccc12)CN1C[C@@H]2CC=CC[C@H]1CN2c1ccc2ccccc2c1`: the “h5HT1A pIC50” value at human 5HT1A receptor [2] is below 5. Also, the “h5HTT pIC50” value at human 5-HTT stood at 6.33.
For `O[C@H](COc1ccnc2ccccc12)CN1C[C@@H]2CC=CC[C@H]1CN2c1ccc2ccccc2c1`, the “h5HT1A pIC50” value on human 5HT1A receptor [2] is below 5. At human 5-HTT, the “h5HTT pIC50” value is 6.66.
Take `COc1ccc(CN2C(=O)[C@@H]3CC=CC[C@H]2C(=O)N3c2ccccc2)c(OC)c1`: the “h5HT1A pIC50” value on human 5HT1A receptor [2] is on record as below 5. On human 5-HTT, the “h5HTT pIC50” value was below 5.
Consider `COc1ccc2cc(N3C[C@@H]4CC=CC[C@H]3CN4CCc3ccc(F)cc3)ccc2c1`, for which the “h5HT1A Antagonist pIC50” value on human 5HT1A receptor [1] was below 5. Further, on human 5HT1A receptor [2], the “h5HT1A pIC50” value turned out to be 5.04. Also, the “h5HTT pIC50” value at human 5-HTT is listed as 6.26.
Turning to `Clc1ccc(N2C[C@@H]3CC=CC[C@H]2CN3)cc1Cl`, the “h5HT1A pIC50” value at human 5HT1A receptor [2] is given as below 5. Moreover, the “h5HTT pIC50” value on human 5-HTT came to 7.31.
As for `Cc1cc2c(OC[C@@H](O)CN3C[C@@H]4CCCC[C@H]3CN4c3ccc4ccccc4c3)cccc2[nH]1`, on human 5HT1A receptor [2], the “h5HT1A pIC50” value was 6.83 and 6.61. Also, on human 5-HTT, the “h5HTT pIC50” value is 6.72 and 6.99.

The record behind these values is patent US8530475B2, “Bridged aryl piperazines derivatives useful for the treatment of CNS, GI-urinary and reproductive disorders” (Janssen Pharmaceutica NV, priority 2006, dated 2013).
